Test [1] concerns the target cAMP and cAMP-inhibited cGMP 3',5'-cyclic phosphodiesterase 10A (Homo sapiens, UniProt Q9Y233). The experiment in a line: Inhibition of PDE10A.
The test system of a further test is Mus musculus. Description: Antipsychotic activity in NMRI mouse assessed as inhibition of phencyclidine-induced hyperlocomotion at 5 mg/kg, sc administered 60 mins prior to phencyclidine challenge measured up to 60 mins relative to vehicle-treated control. The settings on record: route subcutaneous. Format: functional.
The nature of test [2]: Selectivity ratio of IC50 for PDE1B1 to IC50 for rat recombinant PDE10A2.

Chains of the proteins cited; added tags and fusions are not shown. Lines headed by an entry give the natural chain unless they say otherwise; changes in a name come on top.
UniProt Q9Y233: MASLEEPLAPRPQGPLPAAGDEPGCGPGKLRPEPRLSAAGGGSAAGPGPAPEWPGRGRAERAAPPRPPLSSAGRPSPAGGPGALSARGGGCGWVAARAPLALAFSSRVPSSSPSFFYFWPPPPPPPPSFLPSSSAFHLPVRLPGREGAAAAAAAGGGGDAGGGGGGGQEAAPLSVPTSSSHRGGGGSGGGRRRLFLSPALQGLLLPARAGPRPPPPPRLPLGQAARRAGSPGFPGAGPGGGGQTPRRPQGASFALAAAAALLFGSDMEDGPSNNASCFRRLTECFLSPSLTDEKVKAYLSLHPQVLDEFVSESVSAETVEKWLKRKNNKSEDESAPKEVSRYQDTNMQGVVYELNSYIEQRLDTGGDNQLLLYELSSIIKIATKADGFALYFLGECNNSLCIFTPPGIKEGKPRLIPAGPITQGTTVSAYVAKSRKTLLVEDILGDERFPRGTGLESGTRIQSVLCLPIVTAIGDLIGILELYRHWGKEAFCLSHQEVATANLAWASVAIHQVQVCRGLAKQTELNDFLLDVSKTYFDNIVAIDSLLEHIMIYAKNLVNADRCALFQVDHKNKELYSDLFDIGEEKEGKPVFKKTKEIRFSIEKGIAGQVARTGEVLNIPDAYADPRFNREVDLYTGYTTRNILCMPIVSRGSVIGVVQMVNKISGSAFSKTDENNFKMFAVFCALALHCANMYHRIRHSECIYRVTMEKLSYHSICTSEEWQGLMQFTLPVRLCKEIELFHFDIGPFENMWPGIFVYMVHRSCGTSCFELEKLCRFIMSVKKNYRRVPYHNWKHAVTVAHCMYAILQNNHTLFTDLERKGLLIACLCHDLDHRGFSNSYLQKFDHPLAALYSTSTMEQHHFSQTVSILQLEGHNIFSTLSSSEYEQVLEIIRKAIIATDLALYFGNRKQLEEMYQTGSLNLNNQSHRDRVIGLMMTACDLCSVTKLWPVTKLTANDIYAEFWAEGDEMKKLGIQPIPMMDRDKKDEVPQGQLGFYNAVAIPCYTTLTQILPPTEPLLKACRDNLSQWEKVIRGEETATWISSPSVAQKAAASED

For orientation: IC50 means the concentration that inhibits the measured activity by half. As a reminder, the inhibition in vivo is the drop in the measured response relative to a control, in per cent.

Take `COc1ccc(Cc2nccc3cc(OC)c(OC)cc23)cc1OC` [PAPAVERINE]: the IC50 in test [1] was 40 nM.
In the case of `Cc1ncc(C)n2nc(CCc3nc(-c4ccccc4)cn3C)nc12`, the inhibition in vivo at 5 mg/kg in the test with Mus musculus was 99%.
For `COCCc1ccc(-c2c(C)nc3c(N4CCOCC4)ccnn23)cn1` [JNJ-42396302], in test [2], the Ratio IC50 amounted to 100.

Source of the values: ChEMBL document CHEMBL2177053, “Current landscape of phosphodiesterase 10A (PDE10A) inhibition” (J Med Chem, 2012).
